The subject of the assay is release of endogenous NE in the LC (GRABNE1m fluorescence). Format: cell-based, mouse. The conditions noted are these: desipramine 10 μM.

We go through 1 compound from publication PMC6533151 (Neuron, 2019).

Where a name gives a salt, the structure may show the parent alone.

For the compound `CNCCCN1c2ccccc2CCc2ccccc21` [desipramine, Desipramine hydrochloride], the “effect on decay kinetics of fluorescence signals” value is on record as “significantly slowed down the decay kinetics”. Besides, the “effect on stimulation-induced fluorescence response” value (20 pulses at 20 Hz, 4-AP 100 μM, Cd2+ 100 μM, yohimbine 20 μM) was “larger fluorescence responses”.
